Tested on: Benz-I (protease specific for basic amino acid residue)
Assay: Cleavage of peptides by Benz-I, HPLC and amino acid composition of fragments
Assay type: biochemical, Kluyveromyces lactis IFO 1903
Settings: 200 mU Benz-I, 25 nmol peptide, 30° C., 20 hours

## Tyr-Gly-Gly-Phe-Met-Arg-Arg-Val-Gly-Arg-Pro-Glu-Trp-Trp-Met-Asp-Tyr-Gln-Lys-Arg-Tyr-Gly-Gly-Phe-Leu
  Fragment obtained (assumed from amino acid composition) after reaction with Benz-I: Val-Gly-Arg-Pro-Glu-Trp-Trp-Met-Asp-Tyr-Gln-Lys-^20Arg

Reference: patent US5053333A, “Protease” (M & D Research Co., Ltd., priority 1988, dated 1991)
